Values of other authors as cited in PubChem BioAssay AID1811.

What was measured:
Assay in all cases: PubChem AID 1811
[1] = target: Renilla-luciferin 2-monooxygenase; settings: PDB complex binding affinities from literature; Ki when reported
[2] = target: apolipoprotein; settings: PDB complex binding affinities from literature; Kd when reported
[3] = target: CpNagJ; settings: PDB complex binding affinities from literature; Ki when reported
[4] = target: serine/threonine protein phosphatase pp1-gamma; settings: PDB complex binding affinities from literature; IC50 when reported
[5] = target: Protein Phosphatase 2; settings: PDB complex binding affinities from literature; IC50 when reported
[6] = target: Pantothenate kinase; settings: PDB complex binding affinities from literature; Kd when reported
[7] = target: carbamoyl-phosphate synthase; settings: PDB complex binding affinities from literature; Ki when reported
[8] = target: potassium-transporting atpase b chain; settings: PDB complex binding affinities from literature; Kd when reported
[9] = target: Human Beta-Secretase (BACE); settings: PDB complex binding affinities from literature; IC50 when reported
[10] = target: beta-spectrin; settings: PDB complex binding affinities from literature; Kd when reported
[11] = target: phospholipase C delta-1; settings: PDB complex binding affinities from literature; Kd when reported
[12] = target: Rho GTPase-activating protein 9; settings: PDB complex binding affinities from literature; Kd when reported
[13] = target: Casein kinase II subunit alpha; settings: PDB complex binding affinities from literature; Ki when reported
[14] = target: alpha-mannosidase II; settings: PDB complex binding affinities from literature; IC50 when reported
[15] = target: Dimeric dihydrodiol; settings: PDB complex binding affinities from literature; IC50 when reported
[16] = target: Estrogen receptor alpha; settings: PDB complex binding affinities from literature; Ki when reported
[17] = target: CORTICOSTEROID-BINDING GLOBULIN; settings: PDB complex binding affinities from literature; Kd when reported
[18] = target: Mevalonate kinase; settings: PDB complex binding affinities from literature; Kd when reported
[19] = target: ribonuclease a; settings: PDB complex binding affinities from literature; Ki when reported
[20] = target: OROTIDINE 5-PHOSPHATE DECARBOXYLASE; settings: PDB complex binding affinities from literature; Ki when reported
[21] = target: 3-OXOACYL-[ACYL-CARRIER-PROTEIN] SYNTHASE 1; settings: PDB complex binding affinities from literature; Kd when reported
[22] = target: beta-ketoacyl-[acyl carrier protein] synthase i; settings: PDB complex binding affinities from literature; Kd when reported
[23] = target: citrate synthase; settings: PDB complex binding affinities from literature; Kd when reported
[24] = target: Beta-secretase 1; settings: PDB complex binding affinities from literature; IC50 when reported
[25] = target: Cellular retinoic acid-binding protein 2; settings: PDB complex binding affinities from literature; Kd when reported
[26] = target: STEROID DELTA-ISOMERASE(P39A); settings: PDB complex binding affinities from literature; Kd when reported
[27] = target: Alpha-mannosidase II; settings: PDB complex binding affinities from literature; IC50 when reported
[28] = target: GLYCEROL-3-PHOSPHATE DEHYDROGENASE; settings: PDB complex binding affinities from literature; IC50 when reported
[29] = target: NarGHI; settings: PDB complex binding affinities from literature; Ki when reported
[30] = target: Class I phosphodiesterase PDEB1; settings: PDB complex binding affinities from literature; IC50 when reported
[31] = target: phosphodiesterase 9a; settings: PDB complex binding affinities from literature; IC50 when reported
[32] = target: Fructose-bisphosphate aldolase A; settings: PDB complex binding affinities from literature; Ki when reported
[33] = target: Geranylgeranyl pyrophosphate synthetase; settings: PDB complex binding affinities from literature; Ki when reported
[34] = target: Tricomonas vaginalis purine nucleoside phosphorylase(TvPNP); settings: PDB complex binding affinities from literature; Ki when reported
[35] = target: Macrophage metalloelastase(F171D); settings: PDB complex binding affinities from literature; Kd when reported
[36] = target: macrophage metalloelastase (mmp-12); settings: PDB complex binding affinities from literature; Kd when reported
[37] = target: Sucrose isomerase; settings: PDB complex binding affinities from literature; Ki when reported
[38] = target: triosephosphate isomerase; settings: PDB complex binding affinities from literature; Ki when reported
[39] = target: Replicase polyprotein 1ab; settings: PDB complex binding affinities from literature; Ki when reported

## O=C(Cc1ccc(O)cc1)Nc1ncc(-c2ccc(O)cc2)nc1Cc1ccccc1
[1]
  Ki: 0.02 µM

## NCCCCCC(=O)O
[2]
  Kd: 20 µM

## CC(=O)N[C@H]1/C(=N/OC(=O)Nc2ccccc2)O[C@H](CO)[C@@H](O)[C@@H]1O
[3]
  Ki: 0.0054 µM

## C=C1[C@@H](O)[C@@H]2O[C@]3(CC[C@H](/C=C/[C@@H](C)[C@@H]4CC(C)=C[C@@]5(O[C@H](C[C@@](C)(O)C(=O)O)CC[C@H]5O)O4)O3)CC[C@H]2O[C@@H]1[C@@H](O)C[C@H](C)[C@H]1O[C@@]2(CCCCO2)CC[C@H]1C
[4]
  IC50: 0.097 µM
[5]
  IC50: 0.0001 µM

## Nc1ncnc2c1ncn2[C@@H]1O[C@H](COP(=O)(O)OP(=O)(O)NP(=O)(O)O)[C@@H](O)[C@H]1O
[6]
  Kd: 0.24 µM
[7]
  Ki: 400 µM
[8]
  Kd: 1400 µM

## CCCN(CCC)C(=O)c1cc(C)cc(C(=O)N[C@@H](Cc2cc(F)cc(F)c2)[C@H](O)CNCc2cccc(I)c2)c1
[9]
  IC50: 0.005 µM

## O=P(O)(O)O[C@@H]1[C@H](O)[C@H](O)[C@@H](OP(=O)(O)O)[C@H](OP(=O)(O)O)[C@H]1O
[10]
  Kd: 40 µM
[11]
  Kd: 0.21 µM
[12]
  Kd: 0.1 µM

## Brc1c(Br)c(Br)c2[nH]cnc2c1Br
[13]
  Ki: 0.3 µM

## OC[C@@H](NC[C@H]1NC[C@H](O)[C@@H]1O)c1ccccc1
[14]
  IC50: 720 µM

## CC(=O)c1ccc(O)cc1
[15]
  IC50: 0.97 µM

## Oc1ccc([C@@H]2Oc3cccc(O)c3[C@@H]3CCC[C@@H]32)cc1
[16]
  Ki: 0.00029 µM

## C[C@]12CCC(=O)C=C1CC[C@@H]1[C@@H]2[C@@H](O)C[C@@]2(C)[C@H]1CC[C@]2(O)C(=O)CO
[17]
  Kd: 0.005 µM

## C[C@@](O)(CCOP(=O)(O)OP(=O)(O)O)CC(=O)O
[18]
  Kd: 0.5 µM

## O=c1ccn([C@@H]2O[C@H](CO)[C@@H](O)[C@H]2O)c(=O)[nH]1
[19]
  Ki: 40 µM

## O=c1cc(O)n([C@@H]2O[C@H](COP(=O)(O)O)[C@@H](O)[C@H]2O)c(=O)[nH]1
[20]
  Ki: 8.8 pM

## C=C/C(C)=C/[C@@]1(C)SC(=O)C(C)=C1O
[21]
  Kd: 25 µM
[22]
  Kd: 26 µM

## O=C(O)CC(=O)C(=O)O
[23]
  Kd: < 10 µM

## C[C@@H](NC(=O)c1cc(COC(=O)[C@](C)(N)Cc2ccccc2)cc(N(C)S(C)(=O)=O)c1)c1ccc(F)cc1
[24]
  IC50: 0.027 µM

## CC1=C(/C=C/C(C)=C/C=C/C(C)=C/C=O)C(C)(C)CCC1
[25]
  Kd: 0.12 µM

## C[C@]12CCc3c(ccc4cc(O)ccc34)[C@@H]1CCC2=O
[26]
  Kd: 1.4 µM

## OC[C@H](NC[C@H]1NC[C@H](O)[C@@H]1O)c1ccccc1
[27]
  IC50: 80 µM

## Fc1nc(Cl)c2[nH]cnc2n1
[28]
  IC50: 5000 µM

## Oc1c(Cl)c(Cl)c(Cl)c(Cl)c1Cl
[29]
  Ki: 0.057 µM

## CC(C)Cn1c(=O)n(C)c(=O)c2[nH]cnc21
[30]
  IC50: 580 µM
[31]
  IC50: 500 µM

## O=C(Nc1ccc(Cl)cc1)c1cc2ccccc2cc1OP(=O)(O)O
[32]
  Ki: 100 µM

## CC(C)=CCC/C(C)=C/CC/C(C)=C/CC/C(C)=C/COP(=O)(O)OP(=O)(O)O
[33]
  Ki: 25 µM

## Nc1ncnc2c([C@@H]3N[C@H](CO)[C@@H](O)[C@H]3O)c[nH]c12
[34]
  Ki: 0.001 µM

## COc1ccc(S(=O)(=O)N(CC(=O)NO)CC(C)C)cc1
[35]
  Kd: 0.01 µM
[36]
  Kd: 0.01 µM

## O[C@H]1[C@H](O)[C@@H](O)CN2CC[C@H](O)[C@H]12
[37]
  Ki: 15 µM

## O=P(O)(O)OC[C@@H](O)CO
[38]
  Ki: 610 µM

## c1ccccc1
[39]
  Ki: 0.7 µM
